# Test results reported in PubChem BioAssay AID602163 (The Scripps Research Institute Molecular Screening Center, 2012).
# This is a selection; strong and weak results do not stand in their true shares. Active and inactive are the calls of the source. Cut-off read from the data, not from the text of the source: active = activation above about 7.5%; inactive = the rest.
# Test system: Methionine sulfoxide reductase A (Bos taurus)
# Assay: bovine MsrA enzyme activators, primary screen, biochemical, absorbance, HTS (AID 602163);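 note: 0% = vehicle and 100% = reference activator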
# Details: purified bovine MsrA, absorbance read-out; at 10.6 µM; hits give high values
row,Compound,activation
1,C(Cc1nn[nH]n1)Cc1nn[nH]n1,inactive: -6.63%
2,Nc1ccc([As](=O)(O)c2ccc([N+](=O)[O-])cc2)cc1,inactive: 0.3%
3,O=C(OC1CN2CCC1CC2)c1cccc(Cl)c1 (stereo unspecified),inactive: 1.93%
4,O=[N+]([O-])c1ccc(O)c(/C=N/Nc2ccc([N+](=O)[O-])cc2[N+](=O)[O-])c1,inactive: -1.78%
5,O=[N+]([O-])c1ncn(CCn2cnc([N+](=O)[O-])n2)n1,inactive: -3.83%
6,CC(=O)NC(SC(=S)N(C)C)C(Cl)(Cl)Cl (stereo unspecified),inactive: -7.01%
7,O=[As](O)(c1ccccc1)c1ccc(O)cc1,inactive: -7.48%
8,C[C@H]1OP(=O)(Oc2ccccc2)[C@H](O)[C@H](O)[C@H]1N=[N+]=[N-] (stereo partly specified),inactive: -2.34%
9,O=P(Nc1nc2ccccc2s1)(c1ccccc1)c1ccccc1,inactive: -3%
10,COc1ccc(N)c([N+](=O)[O-])c1[N+](=O)[O-],inactive: -2.31%
11,Nc1ccc(CCCCOc2ccccc2)cc1,inactive: -6.99%
12,O=P(Nc1ccccn1)(c1ccc(Br)cc1)c1ccc(Br)cc1,inactive: -0.33%
13,CN(C)C1(CNC(=O)c2ccc(Cl)c(S(N)(=O)=O)c2)CCCCC1,inactive: -1.76%
14,c1nnnn1CCn1cnnn1,inactive: -6%
15,CC(C)C(=O)NC(Sc1ccccc1)C(Cl)(Cl)Cl (stereo unspecified),inactive: -2.46%
16,O=P(Nc1nccs1)(c1ccccc1)c1ccccc1,inactive: 4.85%
17,CC(=O)Nc1ccc(Oc2c([N+](=O)[O-])cc([N+](=O)[O-])cc2[N+](=O)[O-])cc1,inactive: -5.18%
18,CC(=O)Nc1ccc([As](=O)(O)O)c(O)c1,inactive: -4.86%
19,COC(=O)C1(C)COP(=O)(NCc2ccccc2)OC1 (stereo unspecified),inactive: -3.53%
20,CC(=O)c1ccc(N2CC2c2ccncc2)cc1 (stereo unspecified),inactive: -4%
21,N#C/C(=C\c1ccc(N(CCBr)CCBr)cc1)C(N)=O,inactive: -4.01%
22,C[C@H]1OP(=O)(Oc2ccccc2)C[C@@H]2O[C@@H]21 (stereo partly specified),inactive: -1.59%
23,C[C@@H]1C=CCP(=O)(Oc2ccccc2)O1 (stereo partly specified),inactive: -2.81%
24,Cc1ccccc1CN(C)C(=O)COC(=O)C(O)(c1ccccc1)c1ccccc1,inactive: -11.1%
25,CCc1cc(O)c([N+](=O)[O-])c(C)c1[N+](=O)[O-],inactive: -2.21%
26,CC(C)(C)C(=O)NC(Sc1ccccc1)C(Cl)(Cl)Cl (stereo unspecified),inactive: 3.77%

row,Compound,activation
1,CCOc1ccc(C2=NCC(CBr)S2)cc1 (stereo unspecified),inactive: 1.63%
2,O=P1(Nc2nc3ccc(Cl)cc3s2)COc2ccccc2O1 (stereo unspecified),inactive: -1.39%
3,O=c1c2cc([N+](=O)[O-])ccc2[nH]c2c([N+](=O)[O-])cc([N+](=O)[O-])cc12,inactive: -3.07%
4,CN(C)C(=O)Oc1noc2ccccc12,inactive: -2.42%
5,CC(NC(=O)COC(=O)C(O)(c1ccccc1)c1ccccc1)c1ccccc1 (stereo unspecified),inactive: -0.23%
6,Cc1ccccc1OP(=O)(Nc1ccccn1)Oc1ccccc1C,inactive: -7.44%
7,Cc1ccc(OP(=O)(Nc2ccccn2)Oc2ccc(C)cc2)cc1,inactive: -3.21%
8,CC(=O)NC(SC(=S)N(CC(C)C)CC(C)C)C(Cl)(Cl)Cl (stereo unspecified),inactive: -0.23%
9,COC(=O)c1cc2c(s1)N=C(c1ccccc1)N(C)P2(=O)N1CCOCC1 (stereo unspecified),inactive: -0.3%
10,CCC(=O)N1C2C3N(C(=O)CC)C1C1N(C(=O)CC)C(C(N1C(=O)CC)N3C(=O)CC)N2C(=O)CC,inactive: 0.89%
11,O=C(OC1CN2CCC1CC2)c1ccccc1 (stereo unspecified),inactive: 2.64%
12,O=P1(N(CCCl)CCCl)OCCC2CCCCN21 (stereo unspecified),inactive: 1.84%
13,CCNC(=S)/N=C(\N)N[N+](=O)[O-],inactive: -2.04%
14,O=C(NC1CCS(=O)(=O)C1)NP(=S)(Oc1ccccc1)Oc1ccccc1 (stereo unspecified),inactive: -0.05%
15,Cc1ccc(NP(=O)(Oc2cccc(C)c2)Oc2cccc(C)c2)nc1,inactive: -1.88%
16,c1ccc(-c2nn[nH]n2)c(-c2nn[nH]n2)c1,inactive: -1.52%
17,CCN(N=Nc1nonc1N)c1nonc1N,inactive: -5.49%
18,Nc1cccc2ccc([As](=O)(O)O)cc12,inactive: -2.39%
19,Cc1ccc(NP(=O)(Oc2ccccc2F)Oc2ccccc2F)nc1,inactive: -1.13%
20,Cc1cc(SC(NC(=O)c2ccc(F)cc2)C(Cl)(Cl)Cl)ncn1 (stereo unspecified),inactive: 3.11%
21,CCOP(=O)(Nc1ccccc1)OCC,inactive: 1.83%
22,CCCC1OP(N)(=O)OCC1CC (stereo unspecified),inactive: -1.18%
23,CC(=O)Nc1ccc([As](=O)(O)O)cc1,inactive: -2.12%
24,O=C(O)c1ccccc1[As](=O)(O)O,inactive: -5.83%
25,O=P(Nc1nc2ccc(Cl)cc2s1)(c1ccccc1)c1ccccc1,inactive: -2.17%
26,CN(C)P(=O)(N(C)C)n1c(Nc2ccccc2)nnc1-c1ccccc1,inactive: 0%

row,Compound,activation
1,O=[N+]([O-])C1C(O)C(O)C([N+](=O)[O-])C(O)C1O (stereo unspecified),inactive: -2.87%
2,Nc1cc(N)c2nonc2c1[N+](=O)[O-],inactive: -5.08%
3,CC(C)CC(=O)NC(Sc1ccc(Cl)cc1)C(Cl)(Cl)Cl (stereo unspecified),inactive: -3.8%
4,O=C(NC(Sc1ccncn1)C(Cl)(Cl)Cl)c1ccccc1 (stereo unspecified),active: 13.5%
5,Oc1ccccc1CNc1ccccn1,inactive: -8.51%
6,Cc1ccc(OP(=O)(Nc2nccs2)Oc2ccc(C)cc2)cc1,inactive: -3.12%
7,COc1ccccc1OP(=O)(Nc1ccc(C)cn1)Oc1ccccc1OC,inactive: -5.2%
8,CN1CCCC(OC(=O)C(c2ccccc2)c2ccccc2)C1 (stereo unspecified),inactive: -2.04%
9,Clc1ccc(Cl)c(NC2=NCC(CBr)S2)c1 (stereo unspecified),inactive: -1.22%
10,NC(=O)c1cc([N+](=O)[O-])cc([N+](=O)[O-])c1N,inactive: -3.92%
11,Cc1ccc(N/C(=N/P(=O)(N2CCOCC2)N2CCOCC2)N2CCOCC2)cc1,inactive: -1.44%
12,CN(C)C(=O)OCCc1n(C)cc[n+]1C,inactive: -4.2%
13,CC(C)c1nc(Nc2ccccc2)n(P(=O)(N(C)C)N(C)C)n1,inactive: 0.42%
14,CC(C)=N/N=C(\N)N[N+](=O)[O-],inactive: -1.3%
15,CC1CCN(C(=O)Oc2c(Cl)cc(Cl)c3cccnc23)CC1,inactive: -2.15%
16,c1cc(-c2nn[nH]n2)ccc1-c1nn[nH]n1,inactive: -2.6%
17,C[N+]1=C2C=CC=CC=C2SC12C([N+](=O)[O-])=CC([N+](=O)[O-])=C[C-]2[N+](=O)[O-] (stereo unspecified),inactive: 0.17%
18,Nc1ccc([As](=O)(O)c2ccc(N)cc2)cc1,inactive: -14.5%
19,CCN(/C(=N/P(=O)(N1CCOCC1)N1CCOCC1)N1CCOCC1)c1ccc(OC)cc1,inactive: -3.29%
20,O=[N+]([O-])c1cccc2n[nH]nc12,inactive: -3.73%
21,CC(=O)N1C2C3N(C(C)=O)C1C1N(C(C)=O)C(C(N1C(C)=O)N3C(C)=O)N2C(C)=O,inactive: 0.96%
22,CCc1nc2c(n1)c1c(non1O)c1c2no[n+]1[O-],inactive: -2.48%
23,O=[N+]([O-])c1cc([N+](=O)[O-])c(CCNc2ccccc2)c([N+](=O)[O-])c1,inactive: 0.14%
24,Cc1ccc(NP(=O)(Oc2ccccc2)Oc2ccccc2)nc1,inactive: 2.61%
25,COc1ccc(C2=NCC(CBr)S2)cc1 (stereo unspecified),inactive: -3.15%
26,COC(=O)C1(C)COP(=O)(Nc2ccccc2)OC1 (stereo unspecified),inactive: -3.63%

row,Compound,activation
1,O=[N+]([O-])c1cccc(NC2=NCC(CBr)S2)c1 (stereo unspecified),inactive: -5%
2,O=C(O)CNc1ccc([As](=O)(O)O)cc1,inactive: 1.76%
3,CC(C)(C)C(=O)NC(Sc1ccncn1)C(Cl)(Cl)Cl (stereo unspecified),active: 9.3%
4,O=[N+]([O-])c1ncn(CCn2ncnc2[N+](=O)[O-])n1,inactive: -2.84%
5,O=C(Nc1cc([As](=O)(O)O)ccc1O)c1ccccc1,inactive: -3.64%
6,O=P1(N(CCCl)CCCl)OCCCS1 (stereo unspecified),inactive: -3.81%
7,O=[N+]([O-])c1ccc(Nc2ccc(Oc3ccc([N+](=O)[O-])cc3[N+](=O)[O-])cc2)c([N+](=O)[O-])c1,inactive: 0.23%
8,O=P(Nc1ccccn1)(c1cccc2ccccc12)c1cccc2ccccc12,inactive: -1.52%
9,Cc1cc(SC(NC=O)C(Cl)(Cl)Cl)ncn1 (stereo unspecified),inactive: -1.18%
10,CCOC(=O)Nc1cccc([As](=O)(O)O)c1,inactive: -12%
11,Cc1cc(SC(NC(=O)c2ccccc2)C(Cl)(Cl)Cl)nc(C(C)C)n1 (stereo unspecified),inactive: -11.4%
12,CCCCOc1ccc(C(=O)NCC2(N3CCCCC3)CCCCC2)cc1OC,inactive: -0.64%
13,COP(=O)(OC)N1CC1c1ccccc1 (stereo unspecified),inactive: -1.65%
14,CC1CCNP(=O)(N(CCCl)CCCl)O1 (stereo unspecified),inactive: 2.12%
15,CCOC(=O)Nc1ccc([As](=O)(O)O)c(O)c1,inactive: -2.43%
16,O=C(O)C(O)c1ccc(N(CCCl)CCCl)cc1 (stereo unspecified),inactive: -3.82%
17,CCC(C)N(CC(C)C)C(=S)SC(NC(C)=O)C(Cl)(Cl)Cl (stereo unspecified),inactive: 0.64%
18,CCOC(=O)c1ccc(NC(=O)C(C)(CCl)SC)cc1 (stereo unspecified),inactive: -4.26%
19,CSc1ccc(Nc2c([N+](=O)[O-])cc([N+](=O)[O-])cc2[N+](=O)[O-])cc1,inactive: 3.19%
20,O=C(OC1CN2CCC1CC2)c1cccc([N+](=O)[O-])c1 (stereo unspecified),inactive: -3.11%
21,O=C(Nc1ccncc1[N+](=O)[O-])c1ccc([N+](=O)[O-])cc1[N+](=O)[O-],inactive: 0.95%
22,O=C(COc1ccccc1)OC1CN2CCC1CC2 (stereo unspecified),inactive: -3.24%
23,O=C(O)C(=O)c1ccc(N(CCCl)CCCl)cc1,inactive: -4.3%
